Key:
endothelin ETA receptor [1] = target: T1, endothelin ETA receptor (Rattus norvegicus, UniProt P26684); assay: FCS displacement of prebound Alexa532-ET1 from ETA receptor on living A10 cells
endothelin ETA receptor [2] = target: T1, endothelin ETA receptor; assay: FCS time-dependent binding of Alexa532-ET1 after preincubation of A10 cells with BQ-123; parameters: endothelin ETA receptor-ligand complex alone and under the influence of a semisynthetic selective antagonist and a fungal extract on living A10 cells; endogenous in cells; host or cells: A10 cells; conditions: for receptor-ligand complex to which ligand binding was found (in words): 10 min preincubation with 1 μM BQ-123, 5 nM Alexa532-ET1; for total binding of Alexa532-ET1, time course (in words): 10 min preincubation with 1 μM BQ-123, 5 nM Alexa532-ET1, 30 to 60 min
Procedure: The coverslips were placed in a Nunc 12 well plate, and the cells were cultured for 7 days in Dulbecco's Modified Essential Media supplemented with L-glutamine (2 mM), 1% of a solution containing 10000 I.U./mL penicillin and 10000 μg/mL streptomycin (GIBCO, Invitrogen, Karlsruhe, Germany) and 20% foetal calf serum. The cells were grown in 5% CO2 at 37°C until confluence was reached.

Amino acid sequences for entries named in this document (tags omitted). Residues count along the entry.
UniProt P26684, 21-426: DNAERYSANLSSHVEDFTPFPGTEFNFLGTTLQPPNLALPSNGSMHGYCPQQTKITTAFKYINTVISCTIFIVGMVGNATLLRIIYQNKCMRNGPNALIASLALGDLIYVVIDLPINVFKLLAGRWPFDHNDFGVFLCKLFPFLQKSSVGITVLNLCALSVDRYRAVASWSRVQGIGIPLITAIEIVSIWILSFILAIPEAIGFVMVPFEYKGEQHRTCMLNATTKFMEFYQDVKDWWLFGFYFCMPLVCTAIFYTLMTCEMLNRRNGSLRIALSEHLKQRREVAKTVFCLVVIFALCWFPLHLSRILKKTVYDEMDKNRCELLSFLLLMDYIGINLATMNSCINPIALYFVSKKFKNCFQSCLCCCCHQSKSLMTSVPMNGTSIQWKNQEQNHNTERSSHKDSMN

[3] = 1 μM BQ-123, 30 min, 14.3 nM Alexa532-ET1
[4] = 1 μM BQ-123, 30 min, after 45 min with 14.3 nM Alexa532-ET1, mean ± SD of six independent experiments
[5] = 10 min preincubation with 1 μM BQ-123, 5 nM Alexa532-ET1, at 30 min

## BQ-123
Endothelin ETA receptor [1]; [3]
  remaining (nonspecific) binding of Alexa532-ET1: 8 ± 2%
  remaining (nonspecific) binding of Alexa532-ET1, concentration: 1.1 ± 0.3 nM
Endothelin ETA receptor [1]; [4]
  Free L with D free [%] after displacement: 92 ± 2%
  R-L with D bound1 [%] after displacement: 5 ± 2%
  R-L with D bound2 [%] after displacement: 3 ± 1%
Endothelin ETA receptor [1]; concluded from FCS binding to “inactive” receptor state
  pharmacological profile at ETA receptors on A10 cells (in words): inverse agonists of ETA receptors
Endothelin ETA receptor [2]
  receptor-ligand complex to which ligand binding was found (in words): only for the unrestricted diffusing receptor-ligand complex
  total binding of Alexa532-ET1, time course (in words): stable up to 60 min
Endothelin ETA receptor [2]; listed as BQ123
  total binding of Alexa532-ET1, time course (in words): stable after 60 min
  receptor-ligand complex to which ligand binding was found (in words): selectively found for unrestricted diffusing receptor-ligand complexes
Endothelin ETA receptor [2]; 10 min preincubation with 1 μM BQ-123, 5 nM Alexa532-ET1, after 15 min
  total binding of Alexa532-ET1: 14.4 ± 5.1%
Endothelin ETA receptor [2]; [5]
  nonspecific binding of Alexa532-ET1: 1.6 ± 0.2 nM
  total binding of Alexa532-ET1: 32.9 ± 3.9%
Endothelin ETA receptor [2]; preincubation with 1 μM BQ-123, 5 nM Alexa532-ET1, slow diffusion time constant
  binding affinity to the “inactive” receptor state (in words): strong binding affinity to the “inactive” receptor state

Source: paper PMC3353486, “Fluorescence Correlation Spectroscopy in Drug Discovery: Study of Alexa532-Endothelin 1 Binding to the Endothelin ETA Receptor to Describe the Pharmacological Profile of Natural Products” (The Scientific World Journal, 2012)
